Lamin A splicing: modulators of lamin A splicing. AID 1487. Potency, µM (series often up to 46.1 µM), for the others: at the top dose ratio change, negative = inhibition, hits mostly inhibitors. 0.01% of 200,000 active. HeLa LMNA splicing GFP/RFP minigene ratio, 48 h; active = well fitted inhibition curve with a large enough effect in the signal ratio, with a control signal flat, not every such curve was filed as active; inconclusive = small, poorly fitted or top-dose-only effect, or effect the other way, or a change in a side signal; the % refers to the signal ratio; note: potency is the fitted concentration of half-maximal effect; % is set by controls: 0 for no effect and ±100 for the full control effect
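S3 HeLa cells stably expressing lamin A-EGFP splicing minigene plus DsRed2, 600 cells/well, 48 h compound exposure at 37C. Laser-scanning cytometry; analysed as GFP (500-530 nm)/RFP (575-640 nm) total intensity ratio; 0.5% DMSO vehicle.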
ALDH1A1 inh: blocks purified human ALDH1A1 activity | P00352 | Purified ALDH1A1, NADH fluorescence, propionaldehyde substrate | Potency, µM (titrated, usually from 75.3 µM), for the others: at the top dose activity, negative = inhibition, most hits filed as inhibitors | 7.3% of 220,000 active | AID 1030; active = well fitted inhibition curve with a large enough effect, not every such curve was filed as active; inconclusive = small, poorly fitted or top-dose-only effect, or another doubt; inactive = no such curve, though single readings can be large or run the other way;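 note: potency is the fitted concentration of half-maximal effect; plate controls were no enzyme wells and a reference inhibitor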
G9a block: inhibitors of human histone lysine methyltransferase G9a | Potency, µM (highest dose often 102 µM), without a hit: at the highest dose activity, negative = inhibition, hits mostly inhibitors | 8.8% of 350,000 active | Q96KQ7 | G9a H3K9 monomethylation, AlphaScreen, 2 h | AID 504332; note: potency is the fitted concentration of half-maximal effect; % is set by controls: 0 for no effect and ±100 for the full control effect; nearly all actives have a fitted effect of over 75% in size
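G9a (20 nM) preincubated 15 min RT with compounds, then 500 nM biotinylated H3K9 peptide and 20 uM SAM added; 2 h RT reaction. Monomethyl-H3K9 product detected by AlphaScreen with anti-H3K9me1 antibody, streptavidin donor and anti-rabbit IgG acceptor beads.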
miR-21 reporter: raises the signal of a miR-21 reporter | HeLa miR-21 FLuc reporter, luciferase, 48 h | Potency, µM (doses to about 38.3 µM), for the others: at the highest dose reporter change, positive = more light | 340,000 tested, under 10 active | AID 2288; active = well fitted rising curve with a large enough effect; inconclusive = small, poorly fitted or top-dose-only effect; inactive = no such curve, though single readings can be large or run the other way;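 also: % of control where 0% means no effect; miR-21 action dims this reporter so a rising signal means less miR-21 action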
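Compounds were titrated across several concentrations (up to approximately 40 uM) and incubated 48 hours with HeLa miR-21-FLuc reporter cells (miR-21 target sequence downstream of FLuc, endogenous miR-21). Readout was firefly luciferase luminescence after lytic detection reagent.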
KDM4E inh: inhibitors of human JMJD2E histone demethylase | B2RXH2 | 1.6% of 230,000 active | AID 2147 | JMJD2E catalytic domain, FDH-coupled NADH fluorescence (FDH is formaldehyde dehydrogenase) | Potency, µM (top dose mostly 57.1 µM), without a hit: at the top dose activity change, negative = inhibition, most hits filed as inhibitors; active = well fitted inhibition curve with a large enough effect, not every such curve was filed as active; inconclusive = small, poorly fitted or top-dose-only effect, or another doubt; inactive = no such curve, though single readings can be large or run the other way;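 note: potency is the fitted concentration of half-maximal effect; 0% = wells with enzyme and -100% = buffer wells without enzyme; nearly all actives have a fitted effect of over 50% in size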
Sfp PPTase inh: inhibitors of Bacillus subtilis Sfp phosphopantetheinyl transferase; actives 3.5% (n = 310,000); Q9F4F7; Biochemical Sfp PPTase activity, qHTS; Potency, µM, for the others: max response, negative = inhibition, hits mostly inhibitors; active = well fitted inhibition curve with a large enough effect; inconclusive = small, poorly fitted or top-dose-only effect, or another doubt; inactive = no such curve, though single readings can be large or run the other way;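 also: the enzyme is Sfp with the accession as filed and its product quenches rhodamine fluorescence; potency is read from the fitted curve at half-maximal effect; 0% = enzyme reaction without inhibitor and -100% = no enzyme wells; top concentration of the series not given in the record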
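Buffer: 50 mM Hepes-Na pH 7.6, 10 mM MgCl2, 0.01% Nonidet P-40, 0.01% BSA. Enzyme 15 nM, pre-exposed to compound 15 min; substrates then added and fluorescence change tracked over 30 min.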
Active calls of the source: *; ? = inconclusive; . = no result given; [ ] = another dose, or the depositor's remark. Sampled rows, rich in hits. Any-hit rate of the full collection: about 13%. Unless noted, calls come from the whole dose curve; as a rule, active = well fitted curve in the direction sought with a large enough effect; inconclusive = small, poorly fitted or top-dose-only effect, or another doubt; inactive = no such curve, though single readings can be large; an effect the other way counts as inactive or inconclusive.

Lamin A splicing,ALDH1A1 inh,G9a block,miR-21 reporter,KDM4E inh,Sfp PPTase inh,molecule
?,?,50µM*,-34%,-1%,?,O=C(NC(=S)NCc1ccc(F)cc1)c1ccccc1
-7%[46 µM],?,45µM*,-12%,-4%,-2%,O=C(NC(=S)NCc1ccccc1)c1ccccc1
-2%[46 µM],-14%,.,4%,?,-1%,O=C(NC(=S)NCc1ccncc1)c1ccccc1
.,-6%,7.9µM*,-1%,0%,56µM*,CSc1ccc(CN2CCC(C(=O)NCc3ccc(C)cc3)CC2)cc1
8%[46 µM],.,2%[59 µM],7%,.,.,COc1cc(Cl)c(NC(=O)CCS(=O)(=O)c2ccc3c(c2)NC(=O)CO3)c(OC)c1
.,.,17%[59 µM],0%,.,.,CCCOC1(C(F)(F)F)NC(=O)N(c2ccc(Cl)cc2)C1=O (stereo not given)
4%,?,71µM*,1%,-1%,?,NC(=O)CC(NC(=S)NCc1ccccc1)C(=O)O (stereo not given)
.,-2%,22µM*,3%,17%,?,COc1ccc(C(=O)NNC(=O)CSc2nc3c([nH]2)c(=O)n(C)c(=O)n3C)cc1
?,2.2µM*,-1%[59 µM],-20%,-1%,12%,COc1ccc(C(=O)CC(=O)C(=O)NCCc2cccc(C)c2)cc1
.,.,7.9µM*,0%,.,-3%,COc1ccc(C(=O)NNC(=O)CCC(=O)NNC(=O)c2ccc(OC)cc2)cc1
?,3.5µM*,4%,7%,-16%,-2%,COc1ccc(CCNC(=O)c2ccc(CSc3ccccc3)o2)cc1
?,8%,13%[59 µM],-37%,5%,-1%,O=C(Cc1csc(-c2ccccc2)n1)NCc1ccccc1F

The final 6 records of the section before lead into the next:
Lamin A splicing,ALDH1A1 inh,G9a block,miR-21 reporter,KDM4E inh,Sfp PPTase inh,molecule
4%,?,71µM*,1%,-1%,?,NC(=O)CC(NC(=S)NCc1ccccc1)C(=O)O (stereo not given)
.,-2%,22µM*,3%,17%,?,COc1ccc(C(=O)NNC(=O)CSc2nc3c([nH]2)c(=O)n(C)c(=O)n3C)cc1
?,2.2µM*,-1%[59 µM],-20%,-1%,12%,COc1ccc(C(=O)CC(=O)C(=O)NCCc2cccc(C)c2)cc1
.,.,7.9µM*,0%,.,-3%,COc1ccc(C(=O)NNC(=O)CCC(=O)NNC(=O)c2ccc(OC)cc2)cc1
?,3.5µM*,4%,7%,-16%,-2%,COc1ccc(CCNC(=O)c2ccc(CSc3ccccc3)o2)cc1
?,8%,13%[59 µM],-37%,5%,-1%,O=C(Cc1csc(-c2ccccc2)n1)NCc1ccccc1F
5%[46 µM],3%,50µM*,3%,1%,10%,CN(Cc1ccccc1)C(=S)NC(=O)c1ccccc1
?,28µM*,-18%[59 µM],-2%,-4%,-2%,CC(C)c1ccc(C(=O)NC(=S)NCc2cccnc2)cc1
.,.,17%,-7%,.,11%,COc1ccc(CCNC(=O)c2ccc(COc3ccccc3OC)o2)cc1
-8%,?,45µM*,-15%,7%,6%,O=C(Cc1csc(-c2ccccc2)n1)NCc1ccc(F)cc1
.,.,-31%[59 µM],12%,.,.,COc1ccc(CCNC(=O)c2ccc3c(c2)CCN3S(=O)(=O)c2ccc(C)cc2)cc1
.,.,.,-33%,2%,50µM*,COc1ccc(C(=O)NC(=S)SCC(=O)O)cc1
-7%[46 µM],14µM*,.,-5%,5%,-5%,COc1ccc(C(=O)NC(=S)NCCc2ccccc2)cc1
-9%,?,?,-22%,8%,-12%,CCOC(=O)CSC(=S)NC(=O)c1ccc(OC)cc1
.,.,.,-40%,.,13%,COc1ccc(CCNC(=O)c2ccccc2)cc1
-5%,-7%,40µM*,-6%,-28%,?,COc1ccc(C2C3=C(N=C4SCC(=O)N42)c2ccccc2CC3)cc1OC (stereo not given)
?,?,50µM*,-24%,?,-26%,COc1ccc(C2C3=C(N=C4SCC(=O)N42)c2ccccc2CC3)cc1 (stereo not given)
?,-9%,?,2%,-21%,-14%,COc1ccccc1C1C2=C(N=C3SCC(=O)N31)c1ccccc1CC2 (stereo not given)
.,.,?,0%,.,9%,COc1cc(C(=O)Oc2c(OC)cc(C(=S)N3CCOCC3)cc2OC)cc(OC)c1OC
.,.,7.1µM*,-3%,.,56µM*,O=C(Oc1cccc(C(=S)N2CCOCC2)c1)c1ccccc1
.,.,22µM*,1%,.,?,COc1cc(C(=O)Oc2cccc(C(=S)N3CCOCC3)c2)cc(OC)c1OC
.,.,40µM*,27%,.,-17%,S=C(c1ccc(-c2ccccc2)cc1)N1CCOCC1
.,.,45µM*,-4%,.,-25%,O=C(Oc1ccc(Br)cc1C(=S)N1CCOCC1)c1ccccc1
-3%,?,-30%[2.33 µM],-14%,8%,-5%,O=C(c1ccc(-c2ccccc2)cc1)c1ccccc1C(=O)N1CCOCC1
?,10%[20.9 µM],35%[12.7 µM],.,1%[25.5 µM],18%,CC(C)(C)NC[C@H](O)c1cc(O)cc(O)c1
.,.,-5%[0.501 µM],-7%,.,3%,COc1ccc(-n2c(SCC(C)=O)nc3sc(C)c(C)c3c2=O)cc1
.,.,-2%[12.7 µM],13%,.,-3%,Cc1cccc(NC(=O)c2ccc(S(=O)(=O)N3CCC(C)CC3)cc2)n1
6%,3.2µM*,5%[59 µM],4%,3%,-10%,O=C(O)CCCNS(=O)(=O)c1ccc2ccccc2c1
.,.,8%,-3%,.,14%,O=S(=O)(Nc1ccon1)c1ccc(F)c(F)c1
?,-12%,?,5%,-5%,45µM*,Cc1ccc(CN(CC2CCCO2)C(=O)CN2C(=O)C(C(C)C)Oc3ccccc32)o1 (stereo not given)
-3%,-2%,4%,-3%,-4%,1%,CC(C)C1Oc2ccccc2N(CC(=O)N(Cc2ccccn2)CC2CCCO2)C1=O (stereo not given)
9%[46 µM],.,-3%[59 µM],-1%,.,.,Cc1cc(C(=O)NCc2ccccc2)c2c(C)nn(-c3cccc(F)c3)c2n1
-24%[46 µM],.,11%[59 µM],0%,.,.,COc1ccc(CCC(=O)NC2CC(=O)N(c3ccc(C)cc3)C2)cc1 (stereo not given)
?,6%,78%[59 µM],-6%,28µM*,-3%,CC(C)(C)c1nnc(N/N=C/c2ccccc2O)n(N)c1=O
.,-9%,?,-3%,-8%,50µM*,CCc1nnc(N/N=C/c2ccccc2F)n1N
-5%,7%,-3%[59 µM],-15%,-5%,79µM*,CC(C)(C)c1nnc(N/N=C/c2ccccc2)n(N)c1=O
4%,?,1%[0.501 µM],.,.,-17%,CN(C)c1nc(-c2cccnc2)nc2ccccc12
-7%,-10%,.,.,-21%,50µM*,CN(C)c1nc(-c2ccoc2)nc2ccccc12
.,-6%,2%[12.7 µM],.,.,16%,FC(F)(F)c1cc(CN2CCC3(CCNCC3)CC2)cc(C(F)(F)F)c1
-13%[46 µM],.,5%[59 µM],2%,.,.,Cc1nc2ccc(S(=O)(=O)N(CC(=O)Nc3ccc(F)cc3F)Cc3ccccc3)cc2s1
8%,?,10µM*,-1%,?,2%,CCCCN(C)C1=Nc2cccc3cccc1c23
.,.,-11%[0.501 µM],7%,.,-4%,COc1cccc(NC(=O)CCNC(=O)N2CC(=O)Nc3ccccc32)c1
.,.,8%[59 µM],.,.,.,O=C1C[C@H](NC(=O)OCc2ccccc2)CO1
?,13µM*,18µM*,-14%,1%,?,C/C(=N\Nc1nc(C)c(C)s1)c1ccc([N+](=O)[O-])cc1
0%,?,7.1µM*,-25%,?,?,C/C(=N\Nc1ccc([N+](=O)[O-])cc1)c1ccc(N)cc1
